Values joined by “and” are separate entries in the source; they are usually repeats but may differ in a detail not shown here. Identical values can stand only once. Like-named read-outs stand apart in the source and are kept apart here.
Legend:
H + OC antiporter [1] = assay: Trans-stimulation (antiport) with diphenhydramine as probe substrate in hCMEC/D3 cells; assay type: cell-based, human; conditions: for good substrate of both H + OC antiporter and OCT1: diphenhydramine as probe substrate, compared with OCT1 ratio
H + OC antiporter [2] = assay: Trans-stimulation (antiport) with MDAI as probe substrate in hCMEC/D3 cells; assay type: cell-based, human
H + OC antiporter [3] = assay: Cis-inhibition of substrate uptake into hCMEC/D3 cells by diphenhydramine, imipramine or memantine
H + OC antiporter [4] = assay: Concentration-dependent uptake into hCMEC/D3 cells (transport kinetics)
H + OC antiporter [5] = assay: Proton gradient dependency of uptake (FCCP) in hCMEC/D3 cells; assay type: cell-based, human; conditions: FCCP 25 µM, 2 min
H + OC antiporter [6] = assay: Combined criteria for H + OC antiporter substrates (trans-stimulation, inhibition, FCCP, saturable uptake) in hCMEC/D3 cells; assay type: cell-based, human; conditions: all criteria
[7] = hCMEC/D3, inhibitor diphenhydramine 250 µM, substrate 3 µM, 2 min
[8] = hCMEC/D3, inhibitor memantine 250 µM, substrate 3 µM, 2 min
[9] = hCMEC/D3, intracellular diphenhydramine after 2 min incubation with substrate over without substrate
[10] = hCMEC/D3, intracellular MDAI after 2 min incubation with substrate over without substrate

| SMILES | Cis DPH, mean ratio of intracellular substrate concentration with inhibitor over without inhibitor (H + OC antiporter [3]) | Cis Imip, mean ratio of intracellular substrate concentration with inhibitor over without inhibitor (H + OC antiporter [3]) | Cis Mema, mean ratio of intracellular substrate concentration with inhibitor over without inhibitor (H + OC antiporter [3]) | further results |
| --- | --- | --- | --- | --- |
| N[C@@H]1C[C@H]1c1ccccc1 (racemic) [Tranylcypromine] | – | – | – | DPH Antiport Ratio (H + OC antiporter [1]): 0.30; MDAI Antiport Ratio (H + OC antiporter [2]): 0.11 |
| CN(C)CCC=C1c2ccccc2CCc2ccccc21 [Amitriptyline] | – | – | – | Cis DPH, mean ratio of intracellular substrate concentration with inhibitor over without inhibitor (H + OC antiporter [3]; [7]): 0.66; Cis Mema, mean ratio of intracellular substrate concentration with inhibitor over without inhibitor (H + OC antiporter [3]; [8]): 0.7 |
| C[N+](C)(C)CCO [Choline] | – | – | – | DPH Antiport Ratio (H + OC antiporter [1]; [9]): 1.04; MDAI Antiport Ratio (H + OC antiporter [2]; [10]): 1.27 |
| CN(C)CCCC1(c2ccc(F)cc2)OCc2cc(C#N)ccc21 (centres unmarked) [Citalopram] | 0.27 | 0.13 | 0.3 | – |
| CC(C)(C)NCC(O)c1cc(Cl)c(N)c(Cl)c1 (centres unmarked) [Clenbuterol] | 0.33 | 0.37 | 0.5 | – |
| CN(C)CC(c1ccc(O)cc1)C1(O)CCCCC1 (centres unmarked) [Desmethylvenlafaxine] | 0.82 | 0.67 | 1 | good substrate of both H + OC antiporter and OCT1 (H + OC antiporter [1]): good substrates of both the H + OC antiporter and OCT1 |
| CC(CCc1ccc(O)cc1)NCCc1ccc(O)c(O)c1 (centres unmarked) [Dobutamine] | – | – | – | good substrate of both H + OC antiporter and OCT1 (H + OC antiporter [1]): good substrates of both the H + OC antiporter and OCT1 |
| CN(C)CCC=C1c2ccccc2COc2ccccc21 [Doxepin] | – | – | – | Cis DPH, mean ratio of intracellular substrate concentration with inhibitor over without inhibitor (H + OC antiporter [3]; [7]): 0.33; Cis Mema, mean ratio of intracellular substrate concentration with inhibitor over without inhibitor (H + OC antiporter [3]; [8]): 0.4 |
| CNCC[C@H](Oc1cccc2ccccc12)c1cccs1 [Duloxetine] | 0.78 | 0.01 | 0.8 | Km (H + OC antiporter [4]): < 30 µM and 27.7 µM; Vmax (H + OC antiporter [4]): 3167 pmol × mg Protein^−1 × min^−1; intrinsic clearance (H + OC antiporter [4]; hCMEC/D3): above 100 mL/min/g protein; DPH Antiport Ratio (H + OC antiporter [1]): 0.10; Trans DPH, mean ratio of DPH remaining within the cells with substrate over control without substrate (H + OC antiporter [1]): 0.1; MDAI Antiport Ratio (H + OC antiporter [2]): 0.10; Trans MDAI, mean ratio of MDAI remaining within the cells with substrate over control without substrate (H + OC antiporter [2]): 0.1; FCCP, mean ratio of intracellular substrate concentration with FCCP co-incubation over without FCCP (H + OC antiporter [5]): 1 |
| CN[C@@H](C)[C@H](O)c1ccccc1 [Ephedrine] | 0.46 | 0.34 | 0.6 | – |
| CN(C)CCC[C@@]1(c2ccc(F)cc2)OCc2cc(C#N)ccc21 [Escitalopram] | 0.32 | 0.15 | 0.4 | – |
| CC12CC3CC(C)(C1)CC(N)(C3)C2 [Memantine] | 0.23 | 0.2 | – | – |
| CCC1(c2cccc(O)c2)CCCCN(C)C1 (centres unmarked) [Meptazinol] | 0.29 | 0.18 | 0.3 | good substrate of both H + OC antiporter and OCT1 (H + OC antiporter [1]): good substrates of both the H + OC antiporter and OCT1 |
| COC(=O)C(c1ccccc1)C1CCCCN1 (centres unmarked) [Methylphenidate] | 0.6 | 0.55 | 0.6 | – |
| CCN(CC)CCNC(=O)c1cc(Cl)c(N)cc1OC [Metoclopramide] | 0.29 | 0.21 | 0.4 | – |
| COCCc1ccc(OCC(O)CNC(C)C)cc1 (centres unmarked) [Metoprolol] | – | – | – | classification as H + OC antiporter substrate (H + OC antiporter [6]): we did not classify metoprolol as an H + OC antiporter substrate |
| CCN(CC)C(=O)C1(c2ccccc2)CC1CN (centres unmarked) [Milnacipran] | – | – | – | good substrate of both H + OC antiporter and OCT1 (H + OC antiporter [1]): good substrates of both the H + OC antiporter and OCT1 |
| CNCC1CCCCC1(O)c1cccc(OC)c1 (centres unmarked) [N-Desmethyltramadol] | 0.31 | 0.48 | 0.5 | – |
| CNCCC=C1c2ccccc2CCc2ccccc21 [Nortriptyline] | – | – | – | Km (H + OC antiporter [4]; hCMEC/D3, 2 min uptake, 0.1–1000 µM, after subtraction of linear passive-diffusion component): 38.1 µM; Vmax (H + OC antiporter [4]; hCMEC/D3, 2 min uptake, after subtraction of linear passive-diffusion component): 3205 pmol × mg Protein^−1 × min^−1 |
| COc1ccc2c3c1O[C@H]1C(=O)CC[C@@]4(O)[C@@H](C2)N(C)CC[C@]314 [Oxycodone] | 0.31 | 0.23 | 0.29 | – |
| NC(=O)c1cnccn1 [Pyrazinamide] | – | – | – | Cis DPH, mean ratio of intracellular substrate concentration with inhibitor over without inhibitor (H + OC antiporter [3]; [7]): 1.41 |
| Cc1ncc(C[n+]2csc(CCO)c2C)c(N)n1 [Thiamine] | – | – | – | DPH Antiport Ratio (H + OC antiporter [1]; [9]): 0.84; MDAI Antiport Ratio (H + OC antiporter [2]; [10]): 1.60 |
| COc1cc(Cc2cnc(N)nc2N)cc(OC)c1OC [Trimethoprim] | – | – | – | DPH Antiport Ratio (H + OC antiporter [1]; [9]): 0.60; MDAI Antiport Ratio (H + OC antiporter [2]; [10]): 0.85 |
| COc1ccccc1N1CCN(CCCNc2cc(=O)n(C)c(=O)n2C)CC1 [Urapidil] | – | – | – | Cis DPH, mean ratio of intracellular substrate concentration with inhibitor over without inhibitor (H + OC antiporter [3]; [7]): 0.52; Cis Mema, mean ratio of intracellular substrate concentration with inhibitor over without inhibitor (H + OC antiporter [3]; [8]): 0.4 |
